Source: ChEMBL document CHEMBL1138681, “Identification of structurally diverse growth hormone secretagogue agonists by virtual screening and structure-activity relationship analysis of 2-formylaminoacetamide derivatives” (J Med Chem, 2004)
The source made the active and inactive calls. The calls are words filed in the database; no cut-off is given here.

The chains behind the UniProt entries cited, without tags or fusion partners.
UniProt Q92847, whole entry: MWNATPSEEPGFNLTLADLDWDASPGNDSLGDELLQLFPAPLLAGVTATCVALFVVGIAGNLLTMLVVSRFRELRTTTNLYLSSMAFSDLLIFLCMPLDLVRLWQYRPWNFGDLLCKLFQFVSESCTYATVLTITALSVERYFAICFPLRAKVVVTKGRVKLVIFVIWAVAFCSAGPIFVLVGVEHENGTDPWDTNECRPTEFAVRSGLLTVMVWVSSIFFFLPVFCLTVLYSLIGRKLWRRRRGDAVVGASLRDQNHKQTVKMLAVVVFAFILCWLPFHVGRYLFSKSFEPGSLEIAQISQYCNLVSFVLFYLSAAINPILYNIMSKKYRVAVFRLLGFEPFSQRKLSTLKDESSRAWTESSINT

Columns and labels:
[1] = molecular target: T1, Growth hormone secretagogue receptor type 1 (Homo sapiens, UniProt Q92847); test: Tested for growth hormone secretagogue activity in A93 cell line using a calcium flux assay at 10 uM (Relative to compound T1); NA means not active; type: functional, cell-based
[2] = molecular target: T1, Growth hormone secretagogue receptor type 1; test: Tested for growth hormone secretagogue activity in A93 cell line using a calcium flux assay at 10 uM (Relative to compound T1); type: functional, cell-based

| Compound | Activity [1] | Activity [2] |
| --- | --- | --- |
| O=C(NC1CCCCC1)C(c1ccc(F)cc1)N(CCCN1CCOCC1)C(=O)c1ccc(-c2ccccc2)[nH]1 (stereo not drawn) | inactive |  |
| CCN(CC)CCN(C(=O)c1ccc(CN2CCCCC2)o1)C(C(=O)NC1CCCCC1)c1ccc(F)cc1 (stereo not drawn) |  | 0.24 |
| CC(C)(C)NC(=O)C(c1ccc(F)cc1)N(CCCN1CCOCC1)C(=O)c1ccc(-c2ccccc2)[nH]1 (stereo not drawn) | inactive |  |
